Screening data from PubChem BioAssay.
This is a sample that favours compounds with a hit; in the whole collection about 0.43% have one here.
HCMV NEC inh: inhibitors of HCMV UL50-UL53 interaction, biochemical, HTRF; normalized percent inhibition; inhibition, % (test concentration not listed); hit rate 0.15% among 190,000; in the data active = inhibition above about 27%, passing the limit was not always enough
GIV Gai3 FP: inhibitors of GIV GBA-motif binding to rat Galpha-i3; P08753; Galpha-i3/FITC-GIV peptide fluorescence polarization, 90 min; stronger effect = lower value; scaled: aluminum fluoride 0%, vehicle 100%; percent of control (FP), % (test concentration not listed); 210,000 tested, 0.42% active; AID 1224905;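 active = replicate mean at 85% of control or lower, very high polarization wells dropped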;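 note: wells of about 15 µL received 100 nL stock; the first replicate is given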
The depositor's hits bear a star; / = not tested or not shown.

Start of the data: the first 3 compounds, to show the layout:
#1 Cc1cc(C)cc(C(=O)NCC(c2ccc(N(C)C)cc2)N2CCOCC2)c1 (configuration not stated)
#2 O=c1c(-c2ccccc2)c(N2CCOCC2)c1=O
#3 COc1ccc2ccccc2c1/C=C1\SC(=Nc2ccccc2)N(N(C)C)C1=O

compound no. | 1 | 2 | 3
HCMV NEC inh | -6.7 | -50.7 | /
GIV Gai3 FP | 106.0 | 108.6 | 107.9

Main list (from the top)
#1 Cc1cc(C)cc(C(=O)NCC(c2ccc(N(C)C)cc2)N2CCOCC2)c1 (configuration not stated)
#2 O=c1c(-c2ccccc2)c(N2CCOCC2)c1=O
#3 COc1ccc2ccccc2c1/C=C1\SC(=Nc2ccccc2)N(N(C)C)C1=O
#4 CN(C)N1C(=O)/C(=C/c2cccs2)SC1=Nc1ccccc1
#5 COc1ccc(Br)cc1C1C(N2C(=O)c3cccc([N+](=O)[O-])c3C2=O)C(=O)N1c1ccc(Br)cc1 (configuration not stated)
#6 Nc1nc(CSc2nnc(C3CC3)n2C2CC2)nc(Nc2ccccc2)n1

compound no. | 1 | 2 | 3 | 4 | 5 | 6
HCMV NEC inh | -6.7 | -50.7 | / | 2.8 | / | -32.3
GIV Gai3 FP | 106.0 | 108.6 | 107.9 | 85.5* | 106.6 | /

#7 CC(C)C(=O)Nc1ccc(Cl)cc1C(=O)O
#8 CC(C)C(=O)Nc1ccc(N(C)C)cc1C(=O)O
#9 Cc1cccc(N2C(=O)c3cccc4c(N5CCNCC5)ccc(c34)C2=O)c1
#10 Cc1n[nH]c(C)c1N1C(=O)c2cccc3c(Br)ccc(c23)C1=O
#11 O=C1c2cccc3c(N4CCNCC4)ccc(c23)C(=O)N1c1ccc(Cl)cc1
#12 CN(C)c1ccc2c3c(cccc13)C(=O)N(c1ccccc1)C2=O

compound no. | 7 | 8 | 9 | 10 | 11 | 12
HCMV NEC inh | -14.0 | 51.4* | -97.6 | -134.6 | -72.8 | -23.0
GIV Gai3 FP | 99.5 | 98.6 | 87.8 | 99.1 | -91.0* | 101.1

#13 Nc1ccc2c3c(cccc13)C(=O)N(c1ccccc1)C2=O
#14 Cc1n[nH]c(C)c1N1C(=O)c2cccc3c(N)ccc(c23)C1=O
#15 CC(C)(C)OC(=O)N1Cc2ccccc2CC1C(=O)NCCN1CCCCC1 (configuration not stated)
#16 Oc1[nH]c2ccccc2c1C=Nc1cccc(Cl)c1
#17 Cc1nn(C(C)C(=O)N2CCOCC2)c(=O)c2c(-n3cccc3)n(-c3ccccc3)nc12 (configuration not stated)
#18 COc1ccc(/C=C2\C(=O)N(c3ccccc3)N=C2C)cc1

compound no. | 13 | 14 | 15 | 16 | 17 | 18
HCMV NEC inh | -55.8 | / | -3.3 | / | -0.9 | 43.3*
GIV Gai3 FP | -30.3* | -42.3* | 92.6 | 100.8 | 100.6 | 109.3

#19 CC1=NN(c2ccccc2)C(=O)/C1=C\c1ccc(N(C)C)cc1
#20 CN1C(=O)C(=Cc2ccc(Oc3ccc([N+](=O)[O-])cc3[N+](=O)[O-])cc2)C(=O)N(C)C1=O
#21 CC1=NN(c2ccccc2)C(=O)/C1=C\c1ccc(Oc2ccc([N+](=O)[O-])cc2[N+](=O)[O-])cc1
#22 COc1ccc(N2C(=O)c3cc(C)nn3CC2(C)C(=O)NCc2ccccc2)cc1 (configuration not stated)
#23 CC1c2cccn2CCN1S(=O)(=O)/C=C/c1ccc(Cl)cc1 (configuration not stated)
#24 CCN(CC)c1ccc(N2C(=O)/C(=C/c3ccccc3)SC2=S)cc1

compound no. | 19 | 20 | 21 | 22 | 23 | 24
HCMV NEC inh | -21.3 | -63.3 | 53.8* | -1.1 | -27.0 | -8.3
GIV Gai3 FP | 105.0 | 93.0 | 97.0 | 96.6 | / | /

#25 CCN(CC)c1ccc(/C=C2\SC(=S)N(c3c(C)n(C)n(-c4ccccc4)c3=O)C2=O)cc1
#26 CCOc1c(Br)cc(C2C3=C(CC(C)(C)CC3=O)OC3=C2C(=O)CC(C)(C)C3)cc1OC
#27 CCNC(=O)c1nn(-c2ccccc2)nc1CO
#28 O=C(O)C(Cc1ccc(O)cc1)N=Cc1cccc2ccccc12 (configuration not stated)
#29 O=C(O)C(Cc1ccccc1)N=Cc1c(O)c2ccccc2oc1=O (configuration not stated)
#30 CCN(C(=O)Cn1ncc(Cl)c(Cl)c1=O)C1CCS(=O)(=O)C1 (configuration not stated)

compound no. | 25 | 26 | 27 | 28 | 29 | 30
HCMV NEC inh | / | -3.7 | -20.3 | 94.7* | -17.7 | -78.2
GIV Gai3 FP | 26.5* | 99.6 | 105.9 | / | 99.4 | /

#31 CCCCCCc1cc2cc(-c3csc(Nc4ccc(Cl)cc4Cl)n3)c(=O)oc2cc1O
#32 CCCCCCc1cc2cc(-c3nnc(-c4ccc(C)cc4)o3)c(=O)oc2cc1O
#33 CCOC(=O)Cn1c2ccc(C)cc2c2nc3ccccc3nc21
#34 CCc1cc(=O)[nH]c(Nc2ccccc2)n1
#35 CCCc1cc(=O)[nH]c(Nc2ccccc2)n1
#36 CC1=C(C(=O)OCC(F)(F)C(F)(F)F)C(c2ccccc2Br)NC(=O)N1 (configuration not stated)

compound no. | 31 | 32 | 33 | 34 | 35 | 36
HCMV NEC inh | -23.0 | 2.8 | 0.2 | -7.4 | 76.7* | -14.0
GIV Gai3 FP | 195.9 | 7.6* | 101.6 | 110.4 | 107.4 | 102.9

#37 CCOc1ccccc1NC(=S)N(Cc1c[nH]c2ccccc12)C(C)C
#38 COC(=O)CN1C(=O)Cc2ccccc2C1=O
#39 O=C(O)CN1C(=O)Cc2ccccc2C1=O
#40 Cc1ccc(SC(=O)c2cnn(C)c2-n2cccc2)cc1
#41 CCn1c(O)c(/C=c2/c(C)c(C#N)c3nc4ccccc4n3c2=O)n(CC)c1=S
#42 CCc1c(C)c(C#N)c2nc3ccccc3n2c1Nc1ccncc1

compound no. | 37 | 38 | 39 | 40 | 41 | 42
HCMV NEC inh | / | -8.7 | 103.0* | -13.1 | / | /
GIV Gai3 FP | 103.8 | 98.4 | / | 96.5 | -48.2* | 112.0

#43 Cc1c(C#N)c2nc3ccccc3n2c(=O)/c1=C/NN1C(=O)CNC1=S
#44 CCc1c(C)c(C#N)c2nc3ccccc3n2c1NCCN(C)C
#45 O=C1COc2ccc(C(=O)COC(=O)c3ccc4c(c3)C(=O)N(Cc3ccco3)C4=O)cc2N1
#46 O=C(Nc1ccccc1F)C1CCCN(c2nc3cccnc3s2)C1 (configuration not stated)
#47 Cc1c(C(=O)O)sc2ncnc(N3CCc4ccccc43)c12
#48 O=C(Oc1ccc2c(c1)OCO2)c1ccc(CS(=O)(=O)c2ccccc2)o1

compound no. | 43 | 44 | 45 | 46 | 47 | 48
HCMV NEC inh | -24.8 | -13.8 | -23.7 | -22.7 | / | -7.7
GIV Gai3 FP | -30.7* | / | / | 104.8 | 240.5 | /

#49 CCC1c2[nH]c3ccccc3c2CCN1C(=O)Nc1cccc(C)c1 (configuration not stated)
#50 CCOc1cccc2cc(-c3nc4ccccc4s3)c(=O)oc12
#51 O=c1oc2c(CN3CCCC3)c(O)ccc2cc1-c1ccccc1
#52 CCN(CC)Cc1c(O)ccc2cc(-c3nc4ccccc4s3)c(=O)oc12
#53 CC1CCCN(Cc2c(O)ccc3cc(-c4nc5ccccc5s4)c(=O)oc23)C1 (configuration not stated)
#54 CC(C)(O)C(C)(C)CCO

compound no. | 49 | 50 | 51 | 52 | 53 | 54
HCMV NEC inh | -20.2 | / | / | / | -81.5 | 16.0
GIV Gai3 FP | 100.6 | 143.0 | 115.3 | -18.2* | -31.8* | /

#55 N#CC1=C(N)SC(N)=C(C#N)C1c1cccc2ccccc12
#56 Cc1ccc(C2C(C#N)=C(N)SC(N)=C2C#N)c(C)c1
#57 N#CC1=C(N)SC(N)=C(C#N)C1c1ccccc1F
#58 CC(C)C1C(C#N)=C(N)SC(N)=C1C#N
#59 O=C1/C(=C/c2ccc([N+](=O)[O-])cc2)C=C(c2ccccc2)N1c1ccc2ccccc2c1
#60 O=C1/C(=C/c2c(NCC3CCCO3)nc3ccccn3c2=O)SC(=S)N1C1CCCCC1 (configuration not stated)

compound no. | 55 | 56 | 57 | 58 | 59 | 60
HCMV NEC inh | -47.5 | -24.9 | -19.9 | -15.1 | / | /
GIV Gai3 FP | -36.0* | 8.5* | / | 121.1 | 108.0 | 315.1

#61 C=CCNc1nc2ccccn2c(=O)c1/C=C1\SC(=S)N(CCOC)C1=O
#62 O=C1/C(=C/c2c(NCc3ccccc3)nc3ccccn3c2=O)SC(=S)N1CC1CCCO1 (configuration not stated)
#63 CCCN1C(=O)/C(=C/c2c(NCC)nc3ccccn3c2=O)SC1=S
#64 CN1C(=O)/C(=C/c2c(N3CCSCC3)nc3ccccn3c2=O)SC1=S
#65 C=CCNc1nc2ccccn2c(=O)c1/C=C1\SC(=S)N(Cc2ccc3c(c2)OCO3)C1=O
#66 O=C1/C(=C/c2c(NCCCn3ccnc3)nc3ccccn3c2=O)SC(=S)N1CC1CCCO1 (configuration not stated)
#67 C=CCNc1nc2ccccn2c(=O)c1/C=C1\SC(=S)N(C)C1=O

compound no. | 61 | 62 | 63 | 64 | 65 | 66 | 67
HCMV NEC inh | -33.1 | / | -23.6 | -4.5 | / | / | -36.0
GIV Gai3 FP | -75.4* | 264.3 | -75.4* | 185.7 | -26.8* | 259.7 | -24.4*
